Test results from patent publication US20090099074A1, “MODULATING FOOD INTAKE” (CONJUCHEM BIOTECHNOLOGIES INC., priority 2007, published 2009).

Test system: Sprague-Dawley rats
Test: Food intake in rats following IV administration of DAC
Type: in vivo, rat
Details: tail vein injection
Protocol: Compound I (PYY3-36) and Compound III were injected into the tail vein of fully grown Sprague-Dawley rats. Two experiments were carried out so as to verify the influence of the concentration on Compound III of the food consumption of the animal. The food intake was measured pre and post administration (see FIGS. 1 and 2). In experiment 1 on FIG. 1, 4-500 g rats were used and in experiment 2 on FIG. 2, 2-300 g rats were used.

SMILES: CC[C@H](C)[C@H](N)C(=O)N[C@@H](CCCCN)C(=O)N1CCC[C@H]1C(=O)N[C@@H](CCC(=O)O)C(=O)N[C@@H](C)C(=O)N1CCC[C@H]1C(=O)NCC(=O)N[C@@H](CCC(=O)O)C(=O)N[C@@H](CC(=O)O)C(=O)N[C@@H](C)C(=O)N[C@@H](CO)C(=O)N1CCC[C@H]1C(=O)N[C@@H](CCC(=O)O)C(=O)N[C@@H](CCC(=O)O)C(=O)N[C@@H](CC(C)C)C(=O)N[C@@H](CC(N)=O)C(=O)N[C@@H](CCCNC(=N)N)C(=O)N[C@@H](Cc1ccc(O)cc1)C(=O)N[C@@H](Cc1ccc(O)cc1)C(=O)N[C@@H](C)C(=O)N[C@@H](CO)C(=O)N[C@@H](CC(C)C)C(=O)N[C@@H](CCCNC(=N)N)C(=O)N[C@@H](Cc1c[nH]cn1)C(=O)N[C@@H](Cc1ccc(O)cc1)C(=O)N[C@@H](CC(C)C)C(=O)N[C@@H](CC(N)=O)C(=O)N[C@@H](CC(C)C)C(=O)N[C@H](C(=O)N[C@H](C(=O)N[C@@H](CCCNC(=N)N)C(=O)N[C@@H](CCC(N)=O)C(=O)N[C@@H](CCCNC(=N)N)C(=O)N[C@@H](Cc1ccc(O)cc1)C(N)=O)[C@@H](C)O)C(C)C [Compound I]
- reduction in food intake after 24 hrs (25 nmol/kg): does not show reduction in food
- reduction in food intake after 24 hrs (375 nmol/kg, result in words): does not show reduction in food
